{"source": "ChEMBL document CHEMBL1139839", "about": "“SAR of a series of 5,6-dihydro-(9H)-pyrazolo[3,4-c]-1,2,4-triazolo[4,3-alpha]pyridines as potent inhibitors of human eosinophil phosphodiesterase” (J Med Chem, 2007)", "organism": "Homo sapiens", "assay": "Plasma protein binding in human"}
{"smiles": "CCc1nn(C2CCCC2)c2c1CCn1c(-c3cccs3)nnc1-2", "note": "[TOFIMILAST]", "values": [{"measurement": "fraction unbound", "value": 0.02}]}
